Assay results as given in ChEMBL document CHEMBL3865843, “Identification of Ligand Binding Hot Spots of the Histamine H1 Receptor following Structure-Based Fragment Optimization” (J Med Chem, 2016).

Protein sequences, listed by entry. Tags and fused reporters are not part of them.
UniProt P35367, whole entry: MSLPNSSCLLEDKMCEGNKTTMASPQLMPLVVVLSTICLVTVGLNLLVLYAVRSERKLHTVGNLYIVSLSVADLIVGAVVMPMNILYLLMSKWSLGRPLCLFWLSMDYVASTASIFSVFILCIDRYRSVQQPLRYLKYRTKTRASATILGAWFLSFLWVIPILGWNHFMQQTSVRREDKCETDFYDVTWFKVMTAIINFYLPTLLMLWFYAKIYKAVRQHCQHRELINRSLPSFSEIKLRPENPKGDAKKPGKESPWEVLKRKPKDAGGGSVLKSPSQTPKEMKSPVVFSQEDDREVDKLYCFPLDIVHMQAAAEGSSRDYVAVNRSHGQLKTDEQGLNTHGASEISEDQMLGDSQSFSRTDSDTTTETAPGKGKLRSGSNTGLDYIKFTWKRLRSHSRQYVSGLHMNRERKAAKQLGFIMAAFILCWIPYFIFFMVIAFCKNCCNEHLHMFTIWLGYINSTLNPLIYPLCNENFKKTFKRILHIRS

Target: Histamine H1 receptor (Homo sapiens, UniProt P35367)
Assay: biochemical
Format: cell-based, HEK-293T

**Q.** Which Ki does the source give for `CN1CCC(Oc2ccccc2Cc2ccccc2)CC1.O=C(O)/C=C/C(=O)O` here?
**A.** Its Ki is 2 nM.
